Reference: patent publication US20250099420A1, “SMALL MOLECULE MODULATORS OF GPR139 COMPLEX” (University of Florida Research Foundation, Incorporated, priority 2022, published 2025)

Chains of the proteins cited; added tags and fusions are not shown.
UniProt Q6DWJ6, whole entry: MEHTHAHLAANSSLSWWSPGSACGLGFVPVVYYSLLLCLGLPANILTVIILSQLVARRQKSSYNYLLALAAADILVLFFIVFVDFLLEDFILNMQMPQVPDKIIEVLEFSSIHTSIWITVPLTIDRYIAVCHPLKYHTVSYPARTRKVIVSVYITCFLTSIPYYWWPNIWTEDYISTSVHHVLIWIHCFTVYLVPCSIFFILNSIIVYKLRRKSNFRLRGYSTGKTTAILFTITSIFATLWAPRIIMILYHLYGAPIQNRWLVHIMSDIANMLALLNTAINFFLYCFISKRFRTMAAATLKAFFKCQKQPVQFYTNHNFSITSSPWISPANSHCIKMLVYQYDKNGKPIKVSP

Experiments:
[1] = target: T1, GPR139 (Homo sapiens, UniProt Q6DWJ6); assay: GPR139 Agonist titration / agonist counterscreen assay (calcium detection, HEK-GPR139 cells); type: cell-based; details: for Averaged Max % Response (±St. Dev.): activity relative to known control
[2] = tested on: parental HEK cells; assay: HEK parental Agonist Counterscreen Assay (non-transfected cells); type: cell-based; details: for Averaged Max % Response (±St. Dev.): activity relative to known control
[3] = target: T1, GPR139; assay: GPR139 Antagonist titration assay (calcium detection, HEK-GPR139 cells, vs EC80 of S-JNJ-63533054)
[4] = GPR139 Agonist Activity, HEK-GPR139 cells
[5] = HEK Agonist Activity section of Table 4 (parental HEK counterscreen)
[6] = GPR139 Agonist Activity, fitted dose-response curve
[7] = GPR139 Agonist Activity, values printed in E-notation without unit

Averaged Max % Response (±St. Dev.) ([1]; GPR139 Agonist Activity) | EC50 [1, 7] | Compound | EC50 [2, 5] | Averaged Max % Response (±St. Dev.) ([2]; HEK Agonist Activity section) | also measured
85.31 ± 30.99% | – | O=C(CCCC1=Nc2ccccc2S(=O)(=O)N1)Nc1cccc2ccccc12 | > 14100 nM | −0.76 ± 20.69% | Hill Slope ([1]; GPR139 Agonist Activity): 1.05; Lipophilic Efficiency (logP) ([1]; GPR139 Agonist Activity): 2.57; EC50 [1, 4]: 1600 nM
98.66 ± 13.78% | 96.3 nM | Cc1ccc(CCNC(=O)c2cccc(N3CCCC3=O)c2)cc1 | > 14100 nM | 5.89 ± 8.45% | Lipophilic Efficiency (logD) ([1]; GPR139 Agonist Activity, based on logD): 4.11; Hill Slope [1, 6]: 1.08
117.99 ± 3.71% | 2.6 nM | Cc1nn(CC(=O)NCCc2ccc(Cl)cc2)c(=O)c2cccn12 | – | – | Averaged Max % Response (±St. Dev.) ([2]; HEK Agonist Activity): 40.29 ± 5.74%; EC50 ([2]; HEK Agonist Activity, parental non-transfected HEK cells): > 14100 nM
– | 192 nM | CCOC(=O)c1ccc(CSc2nnc(-c3ccccc3)n2N)cc1 | > 14100 nM | −11.97 ± 11.27% | –
– | – | N#Cc1ccc(NS(=O)(=O)c2ccc([N+](=O)[O-])cc2)cc1Cl | – | – | GPR139 Antagonist Activity Ligand Efficiency [3]: 0.35; GPR139 Antagonist Activity Hill Slope ([3]; fitted dose-response curve): 1.24; EC50 ([1]; read-out: GRP139 Agonist activity EC50, agonist counterscreen of the antagonists, scientific notation, molarity): > 14100 nM
110.54 ± 17.48% | 104 nM | CC12C=CC3(CN(Cc4ccccc4)C(=O)C3C1C(=O)NC1CCCc3ccccc31)O2 (centres unmarked) | > 11300 nM | 1.95 ± 4.15% | –
121.73 ± 17.10% | 197 nM | C=C(C)c1cccc(C(C)(C)NC(=O)Nc2ccc(N3CCOCC3)cc2)c1 | > 14100 nM | 9.50 ± 11.03% | –
99.93 ± 9.60% | 134 nM | O=C(Cn1ncc2ccsc2c1=O)NCc1ccc(Cl)cc1 | > 14100 nM | −3.95 ± 8.40% | Hill Slope [1, 6]: 0.53
121.39 ± 22.69% | – | COc1ccc(CNS(=O)(=O)c2ccc3c(c2)CCN3C(=O)C2CC2)cc1 | > 14100 nM | 29.14 ± 5.09% | EC50 [1, 4]: 2000 nM
147.06 ± 19.10% | 121 nM | C=CCC(O)(CC=C)CNC(=O)CCC1(Cc2ccc3ccccc3c2)CCC(=O)N1 (centres unmarked) | > 14100 nM | 9.63 ± 8.04% | –
105.64 ± 11.39% | 235 nM | CC1(c2ccc3ccccc3c2)NC(=O)N(CC(=O)NC2CCS(=O)(=O)C2)C1=O (centres unmarked) | > 14900 nM | 19.47 ± 7.58% | –

Like-named read-outs stand apart in the source and are kept apart here.
